# Measurements published in PubChem BioAssay AID504462 (Sanford-Burnham Center for Chemical Genomics, 2011).
# Amino acid sequences for entries named in this document (tags omitted). A change or cut given only in a name is not applied to a line headed by its entry.
# UniProt Q9Y4P1: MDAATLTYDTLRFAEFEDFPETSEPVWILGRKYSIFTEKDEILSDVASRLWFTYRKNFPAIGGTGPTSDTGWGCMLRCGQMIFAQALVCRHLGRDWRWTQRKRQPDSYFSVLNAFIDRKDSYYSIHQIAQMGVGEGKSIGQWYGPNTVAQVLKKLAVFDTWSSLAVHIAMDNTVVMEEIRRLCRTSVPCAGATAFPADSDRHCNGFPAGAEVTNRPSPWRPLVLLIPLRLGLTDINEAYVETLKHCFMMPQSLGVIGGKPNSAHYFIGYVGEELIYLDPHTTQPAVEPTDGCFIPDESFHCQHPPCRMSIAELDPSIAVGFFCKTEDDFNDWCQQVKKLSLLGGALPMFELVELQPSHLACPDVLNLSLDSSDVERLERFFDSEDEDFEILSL
# This is a selection; strong and weak results do not stand in their true shares. Calls of active or inactive are those of the source. Cut-off read from the data, not from the text of the source: active = inhibition above about 40%; inactive = the rest.
# Biological target: Cysteine protease ATG4B (Homo sapiens) (UniProt Q9Y4P1)
# Assay: ATG4B protease inhibitors, primary screen, biochemical, fluorescence, uHTS (AID 504462)
# Conditions: ATG4B cleavage of LC3-PLA2, NBD-HPC fluorescence, 1 h; at 8.33 µM; stronger effect = higher value
row,SMILES,inhibition
1,CC1CCN(C(=O)Oc2c(Cl)cc(Cl)c3cccnc23)CC1,inactive: 16.4%
2,Nc1ccc([As](=O)(O)c2ccc(N)cc2)cc1,inactive: -10%
3,C[N+]1=C2C=CC=CC=C2SC12C([N+](=O)[O-])=CC([N+](=O)[O-])=C[C-]2[N+](=O)[O-] (stereo not drawn),inactive: -2.25%
4,CCN(/C(=N/P(=O)(N1CCOCC1)N1CCOCC1)N1CCOCC1)c1ccc(OC)cc1,inactive: -2.54%
5,O=C(Nc1cc([As](=O)(O)O)ccc1O)c1ccccc1,inactive: 0.75%
6,O=P1(N(CCCl)CCCl)OCCCS1 (stereo not drawn),inactive: -3.18%
7,COC(=O)C1(C)COP(=O)(Nc2ccccc2)OC1 (stereo not drawn),inactive: -8.95%
8,O=[N+]([O-])c1cccc(NC2=NCC(CBr)S2)c1 (stereo not drawn),inactive: -5.03%
9,O=C(O)CNc1ccc([As](=O)(O)O)cc1,inactive: -1.8%
10,CC(C)(C)C(=O)NC(Sc1ccncn1)C(Cl)(Cl)Cl (stereo not drawn),inactive: 0.01%
11,O=[N+]([O-])c1ncn(CCn2ncnc2[N+](=O)[O-])n1,inactive: -3.67%
12,Cc1cc(SC(NC(=O)c2ccc(F)cc2)C(Cl)(Cl)Cl)ncn1 (stereo not drawn),inactive: -0.02%
13,CCOP(=O)(Nc1ccccc1)OCC,inactive: -8.8%
14,Cc1ccc(NP(=O)(Oc2ccccc2F)Oc2ccccc2F)nc1,inactive: -2.18%
15,CN(C(=O)Cc1ccc(Cl)c(Cl)c1)[C@H]1CCCC[C@@H]1N1CCCC1,inactive: -3.27%
16,CC(=O)Nc1ccc([As](=O)(O)O)cc1,inactive: 4.62%
17,O=C(O)c1ccccc1[As](=O)(O)O,inactive: -7.58%
18,CCCC1OP(N)(=O)OCC1CC (stereo not drawn),inactive: -3.12%
19,O=P(Nc1nc2ccc(Cl)cc2s1)(c1ccccc1)c1ccccc1,inactive: -0.16%
20,CCN(N=Nc1nonc1N)c1nonc1N,inactive: 7.2%
21,Nc1cccc2ccc([As](=O)(O)O)cc12,inactive: 6.06%
22,COc1ccccc1OP(=O)(Nc1ccc(C)cn1)Oc1ccccc1OC,inactive: 3.56%
23,Cc1ccc(OP(=O)(Nc2nccs2)Oc2ccc(C)cc2)cc1,inactive: -5.7%
24,CN1CCCC(OC(=O)C(c2ccccc2)c2ccccc2)C1 (stereo not drawn),inactive: -4.4%
25,Clc1ccc(Cl)c(NC2=NCC(CBr)S2)c1 (stereo not drawn),inactive: -6.01%

row,SMILES,inhibition
1,NC(=O)c1cc([N+](=O)[O-])cc([N+](=O)[O-])c1N,inactive: -8.59%
2,CN(C(=O)Cc1ccc(Cl)c(Cl)c1)[C@H]1CCCC[C@H]1N1CCCC1,inactive: -6.15%
3,Cc1ccc(N/C(=N/P(=O)(N2CCOCC2)N2CCOCC2)N2CCOCC2)cc1,inactive: -2.69%
4,Nc1cc(N)c2nonc2c1[N+](=O)[O-],inactive: -10.8%
5,CC(C)CC(=O)NC(Sc1ccc(Cl)cc1)C(Cl)(Cl)Cl (stereo not drawn),inactive: 13.1%
6,Oc1ccccc1CNc1ccccn1,inactive: 6.05%
7,O=C(NC(Sc1ccncn1)C(Cl)(Cl)Cl)c1ccccc1 (stereo not drawn),inactive: 7.46%
8,CCc1cc(O)c([N+](=O)[O-])c(C)c1[N+](=O)[O-],inactive: -2.2%
9,CC(C)(C)C(=O)NC(Sc1ccccc1)C(Cl)(Cl)Cl (stereo not drawn),inactive: -0.28%
10,O=P1(Nc2nc3ccc(Cl)cc3s2)COc2ccccc2O1 (stereo not drawn),inactive: 9.77%
11,CCOc1ccc(C2=NCC(CBr)S2)cc1 (stereo not drawn),inactive: -9.38%
12,CC(=O)Nc1ccc([As](=O)(O)O)c(O)c1,inactive: -1.98%
13,CC(=O)Nc1ccc(Oc2c([N+](=O)[O-])cc([N+](=O)[O-])cc2[N+](=O)[O-])cc1,inactive: -4.78%
14,CC(=O)c1ccc(N2CC2c2ccncc2)cc1 (stereo not drawn),inactive: 3.74%
15,N#C/C(=C\c1ccc(N(CCBr)CCBr)cc1)C(N)=O,inactive: -4.4%
16,COC(=O)C1(C)COP(=O)(NCc2ccccc2)OC1 (stereo not drawn),inactive: -2.09%
17,Cc1ccccc1CN(C)C(=O)COC(=O)C(O)(c1ccccc1)c1ccccc1,inactive: -5.72%
18,C[C@H]1OP(=O)(Oc2ccccc2)C[C@@H]2O[C@@H]21 (stereo partly drawn),inactive: 2.62%
19,C[C@@H]1C=CCP(=O)(Oc2ccccc2)O1 (stereo partly drawn),inactive: -8.71%
20,O=P1(N(CCCl)CCCl)OCCC2CCCCN21 (stereo not drawn),inactive: -0.07%
21,CCNC(=S)/N=C(\N)N[N+](=O)[O-],inactive: -3.49%
22,O=C(NC1CCS(=O)(=O)C1)NP(=S)(Oc1ccccc1)Oc1ccccc1 (stereo not drawn),inactive: 0.85%
23,c1ccc(-c2nn[nH]n2)c(-c2nn[nH]n2)c1,inactive: 5.65%
24,Cc1ccc(NP(=O)(Oc2cccc(C)c2)Oc2cccc(C)c2)nc1,inactive: -4.23%
25,CC(NC(=O)COC(=O)C(O)(c1ccccc1)c1ccccc1)c1ccccc1 (stereo not drawn),inactive: -5.9%

row,SMILES,inhibition
1,Cc1ccccc1OP(=O)(Nc1ccccn1)Oc1ccccc1C,inactive: 7.41%
2,O=c1c2cc([N+](=O)[O-])ccc2[nH]c2c([N+](=O)[O-])cc([N+](=O)[O-])cc12,inactive: 2.92%
3,CN(C)C(=O)Oc1noc2ccccc12,inactive: -8.78%
4,COC(=O)c1cc2c(s1)N=C(c1ccccc1)N(C)P2(=O)N1CCOCC1 (stereo not drawn),inactive: 4.24%
5,Cc1ccc(OP(=O)(Nc2ccccn2)Oc2ccc(C)cc2)cc1,inactive: -10.8%
6,CC(=O)NC(SC(=S)N(CC(C)C)CC(C)C)C(Cl)(Cl)Cl (stereo not drawn),inactive: -1.65%
7,O=C(OC1CN2CCC1CC2)c1ccccc1 (stereo not drawn),inactive: 0.81%
8,CCC(=O)N1C2C3N(C(=O)CC)C1C1N(C(=O)CC)C(C(N1C(=O)CC)N3C(=O)CC)N2C(=O)CC,inactive: -10.1%
9,O=P(Nc1nc2ccccc2s1)(c1ccccc1)c1ccccc1,inactive: -2.3%
10,C[C@H]1OP(=O)(Oc2ccccc2)[C@H](O)[C@H](O)[C@H]1N=[N+]=[N-] (stereo partly drawn),inactive: -0.98%
11,COc1ccc(N)c([N+](=O)[O-])c1[N+](=O)[O-],inactive: -5.56%
12,O=P(Nc1ccccn1)(c1ccc(Br)cc1)c1ccc(Br)cc1,inactive: -7.13%
13,CN(C)C1(CNC(=O)c2ccc(Cl)c(S(N)(=O)=O)c2)CCCCC1,inactive: 1.68%
14,C(Cc1nn[nH]n1)Cc1nn[nH]n1,inactive: 7.95%
15,Nc1ccc([As](=O)(O)c2ccc([N+](=O)[O-])cc2)cc1,inactive: -6.01%
16,O=C(OC1CN2CCC1CC2)c1cccc(Cl)c1 (stereo not drawn),inactive: -5.74%
17,O=[N+]([O-])c1ccc(O)c(/C=N/Nc2ccc([N+](=O)[O-])cc2[N+](=O)[O-])c1,inactive: 7.56%
18,O=[N+]([O-])c1ncn(CCn2cnc([N+](=O)[O-])n2)n1,inactive: 3.22%
19,CC(=O)NC(SC(=S)N(C)C)C(Cl)(Cl)Cl (stereo not drawn),inactive: 5.16%
20,O=[As](O)(c1ccccc1)c1ccc(O)cc1,inactive: -0.34%
21,c1nnnn1CCn1cnnn1,inactive: 1.84%
22,CC(C)C(=O)NC(Sc1ccccc1)C(Cl)(Cl)Cl (stereo not drawn),inactive: 6.31%
23,O=P(Nc1nccs1)(c1ccccc1)c1ccccc1,inactive: -0.01%
